Experimental data from patent US20220153822A1 (ALYTAS THERAPEUTICS, published 2022).

B1: Antibody No. 50 (antibody, V domains shown)
VH: QVQLVESGGGVVQPGRSLRLSCAASGFTFSSYAMHWVRQAPGKGLEWVAVISYDGSNKYYADSVKGRFTISRDNSKNTLYLQMNSLRAEDTAVYYCARSGSYFGFDYWGQGTLVTVSS
VL: not shown
notes: human IgG1, lambda or kappa light chain; also called 448-D05
B2: Antibody No. 58 (antibody, V domains shown)
VH: QVQLVQSGAEVKKPGASVKVSCKASGYTFTSYYMHWVRQAPGQGLEWMGIINPSGGSTSYAQKFQGRVTMTRDTSTSTVYMELSSLRSEDTAVYYCARSRGGSAFDIWGQGTLVTVSS
VL: not shown
notes: human IgG1, lambda or kappa light chain; also called 447-B12

Biological target: T1, Perilipin epitope 6 peptide EVRVPWLHSLAAAQE (SEQ ID NO. 333) (human, Biotin-PEG Spacer and GGSGGS Linker (SEQ ID NO. 438) at the N-terminus, or Biotin-PEG Spacer and AAAAA Linker (SEQ ID NO. 439) at the C-terminus)
T1 construct: Two biotinylated variants were used for selection and ELISA; On the peptide array it stood without biotin; also called target peptide
T1 peptide: EVRVPWLHSLAAAQE
Test: phage display selection and ELISA on biotinylated target peptide

| Binder | binding result |
| --- | --- |
| B1 | binds |
| B2 | binds |
